Results on five compounds are retold here after ChEMBL document CHEMBL1144049, “Functional assay and structure-activity relationships of new third-generation P-glycoprotein inhibitors” (Bioorg Med Chem, 2008).

Protein sequences, listed by entry. Tags and fused reporters are not part of them.
UniProt P08183, whole entry: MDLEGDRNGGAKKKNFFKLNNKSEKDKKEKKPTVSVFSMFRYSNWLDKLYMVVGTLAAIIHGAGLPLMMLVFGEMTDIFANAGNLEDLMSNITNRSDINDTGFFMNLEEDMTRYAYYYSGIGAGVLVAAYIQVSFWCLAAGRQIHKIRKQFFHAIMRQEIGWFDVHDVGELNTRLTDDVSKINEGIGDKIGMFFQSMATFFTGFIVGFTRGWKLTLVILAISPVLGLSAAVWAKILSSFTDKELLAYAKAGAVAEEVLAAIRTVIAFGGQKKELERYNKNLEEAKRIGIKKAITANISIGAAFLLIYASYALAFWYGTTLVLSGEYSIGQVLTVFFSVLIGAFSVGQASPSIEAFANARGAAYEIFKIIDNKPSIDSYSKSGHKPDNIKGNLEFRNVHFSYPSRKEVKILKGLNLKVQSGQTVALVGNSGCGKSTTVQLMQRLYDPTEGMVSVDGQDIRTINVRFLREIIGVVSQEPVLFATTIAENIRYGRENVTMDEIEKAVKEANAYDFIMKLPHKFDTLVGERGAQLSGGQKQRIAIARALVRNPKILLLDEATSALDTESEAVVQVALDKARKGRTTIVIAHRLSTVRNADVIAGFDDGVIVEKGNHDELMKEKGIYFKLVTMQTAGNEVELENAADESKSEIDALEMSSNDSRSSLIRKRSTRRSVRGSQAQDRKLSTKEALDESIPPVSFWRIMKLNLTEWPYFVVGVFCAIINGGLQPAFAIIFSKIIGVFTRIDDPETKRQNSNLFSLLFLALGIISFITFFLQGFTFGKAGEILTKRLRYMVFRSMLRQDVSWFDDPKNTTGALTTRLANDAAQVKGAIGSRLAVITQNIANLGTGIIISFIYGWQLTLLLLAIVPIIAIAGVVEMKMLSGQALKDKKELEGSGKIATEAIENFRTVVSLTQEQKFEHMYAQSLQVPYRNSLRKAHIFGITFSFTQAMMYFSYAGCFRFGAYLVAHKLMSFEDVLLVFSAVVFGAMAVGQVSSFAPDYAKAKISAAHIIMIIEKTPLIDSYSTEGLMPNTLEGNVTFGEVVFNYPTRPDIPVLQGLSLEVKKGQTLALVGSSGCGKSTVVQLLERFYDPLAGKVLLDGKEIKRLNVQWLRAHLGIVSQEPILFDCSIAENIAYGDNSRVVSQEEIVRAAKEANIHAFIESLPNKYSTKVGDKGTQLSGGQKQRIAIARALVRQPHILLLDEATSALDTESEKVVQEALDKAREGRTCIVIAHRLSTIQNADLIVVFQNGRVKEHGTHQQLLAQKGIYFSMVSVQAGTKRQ

The target of assay [1] is T1, ATP-dependent translocase ABCB1 (Homo sapiens, UniProt P08183). In words: Inhibition of human Pgp in A2780 cells after 30 mins by calcein AM assay. The assay is classed as cell-based.
Assay [2] deals with T1, ATP-dependent translocase ABCB1. In words: Inhibition of human Pgp in A2780 cells after 30 mins by Hoechst 33342 assay. The assay is classed as cell-based.

Consider `COc1cc2c(cc1OC)CN(CCc1ccc(NC(=O)c3ccc(Br)cc3)cc1)CC2`, for which the IC50 in assay [1] was 3.16 µM; in assay [2], 2.45 µM.

As for `O=C(Nc1ccc(CCN2CCc3ccccc3C2)cc1)c1cnc2ccccc2c1`, the IC50 in assay [1] was 0.525 µM; in assay [2] it was 0.417 µM.

Regarding `COc1cc2c(cc1OC)CN(CCc1ccc(NC(=O)c3cc(OC)c(OC)cc3[N+](=O)[O-])cc1)CC2`, the values for the IC50 in assay [1] and in assay [2] were 6.17 µM and 4.9 µM, respectively.

Consider `COc1ccc(C(=O)Nc2ccc(CCN3CCc4cc(OC)c(OC)cc4C3)cc2)cc1OC`, for which the figures for the IC50 in assay [1] and in assay [2] were 4.17 µM and 5.37 µM, respectively.

As for `Nc1ccccc1C(=O)Nc1ccc(CCN2CCc3ccccc3C2)cc1`, the IC50 is 9.33 µM in assay [1] and 9.55 µM in assay [2].

The term IC50 denotes the concentration needed to halve the response being measured.
